These results are taken from PMC6026870, “Selective induction of cancer cell death by VDAC1‐based peptides and their potential use in cancer therapy” (Molecular Oncology, 2018).

The test system of assay [1] is DU‐145. The assay is classed as cell-based. As for the experimental part:
(§1) Leukemia cells, U‐937, MEC‐1 cells (4 × 10^5 or 8 × 10^5 cells/sample, respectively), as well as other leukemia or suspension cell lines, were incubated in 200 μL serum‐free medium with various concentrations of the peptide for 90 min at 23–25 °C, collected by centrifugation (500 g, 5 min), washed with PBS, and analyzed for cell death. Adherent cells (6 × 10^5 mL^−1 at 70–80% confluence) were incubated with the peptide of interest in 500 μL serum‐free recommended culture medium for 3–6 h at 37 °C and 5% CO2. The cells were then trypsinized, centrifuged (1500 g, 5 min), washed with PBS, and analyzed for the desired activity. Following peptide treatment, cells were subjected to cell death analysis. Propidium iodide (PI) staining was performed by addition of PI (6.25 μg·mL^−1) to the cells and immediate analysis by the EC800 Flow cytometer Analyzer–Eclipse or the FACS caliber (Becton‐Dickinson, San Jose, CA, USA) and BD […] PRO software (BD Biosciences, San Jose, CA, USA).
(§2) Forty‐one cancerous and five noncancerous cell lines were used in this study to examine the cell‐killing activity of the VDAC1‐based peptides Antp‐LP4, Tf‐LP4, Tf‐D‐LP4, R‐Tf‐D‐LP4, N‐Ter‐Antp, and others (Figs 1, 2, 3 and Tables 1, 2, 3). For each line, cells were incubated with different peptide concentrations, and cell death was determined by PI staining and FACS analysis (Figs 1, 2, 3). In addition, for each cell line, the concentration of the peptide inducing 50% cell death (EC50) was determined (Tables 1, 2, 3).

Assay [2] has as its system PC‐3. It is filed as cell-based. To be noted: PC‐3 (prostate cancer cells, Fig. 2), 6 h, PI/FACS. Here is the method:
as §1, §2

Assay [3] relates to U‐87MG. The assay is classed as cell-based. To be noted: 6 h. Here is the method: as §1, §2
Assay [4] deals with PANC1. It is filed as cell-based. To be noted: 6 h. Here is the method:
as §1, §2

The nature of assay [5]: Peptide stability on storage, read out as cell death activity. It is filed as physicochemical. To be noted: 10 µM final concentration, PI and FACS; control cells 3%; cell line not printed (Fig. S3D,E). Here is the method:
Purified HK-I (13 µg/ml) was pre-incubated with the indicated concentrations of Tf-D-LP4 (●) or R-Tf-D-LP4 (○) and assayed for HK activity as described in Materials and Methods. Change in absorbance at 340 nm (NADH production) was spectrophotometrically measured following addition of 1 mM ATP, and 0.05 unit/ml glucose-6-phosphate dehydrogenase. C. Tf-D-LP4 and R-Tf-D-LP4 solubility. The peptides were dissolved to a final concentration of 5 mM in 5% DMSO and diluted to 1.1 mM in HBSS. Peptide absorbance in the supernatant was measured at 280 nm following centrifugation at 12,000g before and after 75 min incubation at 24 °C. D, E. Tf-D-LP4 and R-Tf-D-LP4 (0.5 mM in 5% DMSO) were incubated at -20 °C (○), 4 °C (●) or 24 °C (▲) and at the indicated time, aliquots (10 µM, final concentration) were assayed for cell death as described in Materials and Methods. Cell death was analyzed using PI and FACS analysis. In control cells, cell death was 3%, while peptide treatment led to levels of cell death over 90%.

For assay [6], the target named is T1, Human hexokinase I (HK‐I), recombinant (human, UniProt P19367 1-917, fluorescently labeled using a NanoTemper BLUE protein‐labeling kit (in the MST)).
T1 chain: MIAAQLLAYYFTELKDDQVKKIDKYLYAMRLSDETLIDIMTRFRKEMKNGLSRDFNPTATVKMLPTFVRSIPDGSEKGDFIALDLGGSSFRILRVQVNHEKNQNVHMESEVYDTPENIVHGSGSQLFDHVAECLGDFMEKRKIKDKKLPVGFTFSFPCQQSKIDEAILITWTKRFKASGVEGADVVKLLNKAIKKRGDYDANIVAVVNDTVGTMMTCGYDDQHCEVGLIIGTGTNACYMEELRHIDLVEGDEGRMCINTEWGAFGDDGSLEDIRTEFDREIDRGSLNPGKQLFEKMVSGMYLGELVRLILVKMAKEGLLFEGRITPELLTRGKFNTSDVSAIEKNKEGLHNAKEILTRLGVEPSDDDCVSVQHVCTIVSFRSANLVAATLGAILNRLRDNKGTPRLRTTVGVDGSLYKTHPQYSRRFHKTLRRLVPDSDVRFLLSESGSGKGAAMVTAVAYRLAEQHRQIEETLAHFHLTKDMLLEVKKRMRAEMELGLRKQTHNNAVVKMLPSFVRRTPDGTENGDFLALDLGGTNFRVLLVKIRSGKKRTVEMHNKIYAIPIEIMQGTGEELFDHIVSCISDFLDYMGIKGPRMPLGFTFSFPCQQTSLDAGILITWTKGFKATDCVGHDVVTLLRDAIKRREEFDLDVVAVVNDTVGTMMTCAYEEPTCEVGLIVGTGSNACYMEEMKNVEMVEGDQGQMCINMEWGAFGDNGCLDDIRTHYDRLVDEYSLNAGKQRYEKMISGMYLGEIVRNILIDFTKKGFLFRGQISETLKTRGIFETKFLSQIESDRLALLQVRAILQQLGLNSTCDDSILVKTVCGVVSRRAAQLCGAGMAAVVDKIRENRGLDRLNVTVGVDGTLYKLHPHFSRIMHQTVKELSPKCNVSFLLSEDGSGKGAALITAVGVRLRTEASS
Nature of the assay: MST.

The target in assay [7] is T2, Human hexokinase II (HK‐II), recombinant (human, UniProt P52789 1-917, fluorescently labeled using a NanoTemper BLUE protein‐labeling kit (in the MST)).
T2 chain: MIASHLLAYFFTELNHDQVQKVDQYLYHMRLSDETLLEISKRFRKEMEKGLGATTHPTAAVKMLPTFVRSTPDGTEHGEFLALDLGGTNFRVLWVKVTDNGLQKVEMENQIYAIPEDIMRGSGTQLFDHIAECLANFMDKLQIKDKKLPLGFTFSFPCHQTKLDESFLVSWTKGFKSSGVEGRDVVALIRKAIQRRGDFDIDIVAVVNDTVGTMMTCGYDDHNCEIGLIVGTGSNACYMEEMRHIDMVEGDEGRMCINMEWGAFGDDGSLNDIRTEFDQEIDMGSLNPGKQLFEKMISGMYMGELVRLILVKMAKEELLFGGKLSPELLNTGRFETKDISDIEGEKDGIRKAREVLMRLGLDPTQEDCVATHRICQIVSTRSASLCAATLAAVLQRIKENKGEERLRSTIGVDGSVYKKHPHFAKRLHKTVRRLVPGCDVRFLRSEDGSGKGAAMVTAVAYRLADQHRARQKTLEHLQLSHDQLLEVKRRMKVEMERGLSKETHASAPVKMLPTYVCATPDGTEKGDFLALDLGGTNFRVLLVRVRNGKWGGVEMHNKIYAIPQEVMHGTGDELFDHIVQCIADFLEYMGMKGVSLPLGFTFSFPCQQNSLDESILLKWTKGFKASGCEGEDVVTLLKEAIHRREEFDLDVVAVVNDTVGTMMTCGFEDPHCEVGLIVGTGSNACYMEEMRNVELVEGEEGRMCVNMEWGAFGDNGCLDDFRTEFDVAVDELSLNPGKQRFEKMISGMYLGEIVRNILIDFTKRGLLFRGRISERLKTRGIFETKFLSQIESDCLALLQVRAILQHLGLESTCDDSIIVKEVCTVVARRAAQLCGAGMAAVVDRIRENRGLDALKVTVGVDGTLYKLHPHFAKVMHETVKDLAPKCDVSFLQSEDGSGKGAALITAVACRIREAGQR
The assay can be described thus: MST.

For `CC[C@@H](C)[C@@H](NC(=O)[C@@H](CCCCN)NC(=O)[C@H](NC(=O)[C@@H](CCC(N)=O)NC(=O)[C@H](N)CCCNC(=N)N)[C@H](C)CC)C(=O)N[C@H](Cc1c[nH]c2ccccc12)C(=O)N[C@H](Cc1ccccc1)C(=O)N[C@H](CCC(N)=O)C(=O)N[C@H](CC(N)=O)C(=O)N[C@H](CCCNC(=N)N)C(=O)N[C@H](CCCNC(=N)N)C(=O)N[C@H](CCSC)C(=O)N[C@H](CCCCN)C(=O)N[C@H](Cc1c[nH]c2ccccc12)C(=O)N[C@H](CCCCN)C(=O)N[C@H](CCCCN)C(=O)N[C@H](CO)C(=O)N[C@H](Cc1c[nH]c2ccccc12)C(=O)N[C@@H](C(=O)N[C@H](Cc1c[nH]c2ccccc12)C(=O)N[C@H](CCC(=O)O)C(=O)N[C@H](CCCCN)C(=O)N[C@H](CCCCN)C(=O)N[C@H](CC(C)C)C(=O)N[C@H](CCC(=O)O)C(=O)N[C@@H](C(=O)N[C@H](C)C(=O)N[C@@H](C(=O)N[C@H](CC(N)=O)C(=O)N[C@H](CC(C)C)C(=O)N[C@H](C)C(=O)N[C@H](Cc1c[nH]c2ccccc12)C(=O)N[C@@H](C(=O)N[C@H](C)C(=O)NCC(=O)N[C@H](CC(N)=O)C(=O)N[C@H](CO)C(=O)N[C@H](CC(N)=O)C(=O)N[C@H](CCCCN)C(=O)N[C@H](Cc1c[nH]c2ccccc12)C(=O)N[C@@H](C(=O)N[C@H](Cc1c[nH]c2ccccc12)C(=O)N[C@H](CCCCN)C(=O)O)[C@H](C)O)[C@H](C)O)C(C)C)[C@H](C)O)[C@H](C)O` [D‐Antp‐LP4], the “EC50 in killing prostate cancer cells” value in assay [1] (DU‐145 (prostate cancer cells, Fig. 2), 6 h, PI/FACS) is recorded as “submicromolar range”; in assay [2], “submicromolar range”. For the same molecule, in assay [1] (DU‐145, 6 h, PI/FACS (Fig. 2C vs D)), the “fold more effective in inducing cell death than the same peptide composed of L‐amino acids” value was “about fourfold”. In addition, the response in assay [3] was half-maximal at 6.5 µM (EC50).

For the molecule `CC[C@H](C)[C@H](NC(=O)[C@H](C)NC(=O)[C@@H](N)Cc1c[nH]cn1)C(=O)N[C@@H](Cc1ccc(O)cc1)C(=O)N1CCC[C@H]1C(=O)N[C@@H](CCCNC(=N)N)C(=O)N[C@@H](Cc1c[nH]cn1)C(=O)N[C@H](CO)C(=O)N[C@H](Cc1c[nH]c2ccccc12)C(=O)N[C@@H](C(=O)N[C@H](Cc1c[nH]c2ccccc12)C(=O)N[C@H](CCC(=O)O)C(=O)N[C@H](CCCCN)C(=O)N[C@H](CCCCN)C(=O)N[C@H](CC(C)C)C(=O)N[C@H](CCC(=O)O)C(=O)N[C@@H](C(=O)N[C@H](C)C(=O)N[C@@H](C(=O)N[C@H](CC(N)=O)C(=O)N[C@H](CC(C)C)C(=O)N[C@H](C)C(=O)N[C@H](Cc1c[nH]c2ccccc12)C(=O)N[C@@H](C(=O)N[C@H](C)C(=O)NCC(=O)N[C@H](CC(N)=O)C(=O)N[C@H](CO)C(=O)N[C@H](CC(N)=O)C(=O)N[C@H](CCCCN)C(=O)N[C@H](Cc1c[nH]c2ccccc12)C(=O)N[C@@H](C(=O)N[C@H](Cc1c[nH]c2ccccc12)C(=O)N[C@H](CCCCN)C(=O)O)[C@H](C)O)[C@H](C)O)C(C)C)[C@H](C)O)[C@H](C)O` [Tf‐D‐LP4], the EC50 in assay [4] is 2.7 ± 0.9 µM. The “cell death on peptide treatment” value in assay [5] was “over 90%”.

B1: Tf‐D‐LP4 (peptide)
peptide: HAIYPRHSWTWEKKLETAVNLAWTAGNSNKWTWK
modifications: only the amino acids of the VDAC1‐derived sequence are in D‐configuration
On to B1, for which the Kd amounted to 10.5 µM in assay [6] and 9.5 µM in assay [7].

B2: Antp‐LP4 (peptide)
peptide: RQIKIWFQNRRMKWKKSWTWEKKLETAVNLAWTAGNSNKWTWK
notes: amino acids added to form a loop‐shaped tryptophan zipper (N‐terminal arm); amino acids added to form a loop‐shaped tryptophan zipper (C‐terminal arm); 43 residues as printed; source: synthetic peptide (GL Biochem, > 85% purity)
In the case of B2, in assay [6], the Kd was determined as 9.5 µM.

B3: Retro‐Tf‐D‐LP4 (peptide)
peptide: KWTWKNSNGATWALNVATELKKEWTWSHRPYIAH
modifications: retro‐inverso peptide with amino acids in D‐configuration; which residues are D is marked in bold in the paper's printed sequence
Regarding B3, the Kd in assay [6] came out at 15 µM.

The term EC50 denotes the concentration giving half of the maximal effect. High values mean a less potent agent, low ones a more potent agent. For orientation: Kd means the equilibrium constant for the complex coming apart.
